{
  "sequences": {"note": "The chains behind the UniProt entries cited, without tags or fusion partners. Residues count along the entry.", "UniProt P01116, 1-188 isoform 2 G12C": "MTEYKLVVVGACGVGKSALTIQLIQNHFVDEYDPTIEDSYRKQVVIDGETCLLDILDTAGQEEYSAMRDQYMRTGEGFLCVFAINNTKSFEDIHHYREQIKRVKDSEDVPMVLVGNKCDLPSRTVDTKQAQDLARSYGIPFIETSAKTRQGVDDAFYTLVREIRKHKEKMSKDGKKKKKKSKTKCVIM", "UniProt P01116, 1-188 isoform 2 G12D": "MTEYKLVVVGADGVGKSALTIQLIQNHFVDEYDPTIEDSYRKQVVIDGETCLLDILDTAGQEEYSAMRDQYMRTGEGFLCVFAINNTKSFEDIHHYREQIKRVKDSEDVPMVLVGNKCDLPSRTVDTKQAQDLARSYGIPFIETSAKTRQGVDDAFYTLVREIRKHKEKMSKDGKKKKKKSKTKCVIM"},
  "source": "patent US20250206732A1",
  "about": "“COMPOUNDS AND METHODS FOR THE TARGETED DEGRADATION OF KRAS” (Arvinas Operations, Inc., priority 2022, published 2025)",
  "key": {"AsPC-1 HiBiT-KRASG12D": {"molecular_target": "AsPC-1 HiBiT-KRASG12D (Homo sapiens, UniProt P01116, G12D)", "experiment": "HiBiT degradation assay (G12D), AsPC-1 HiBiT-KRASG12D cells", "conditions": "read-out: AsPC-1 HiBiT-KRASG12D DC50, 24 hours treatment, HiBiT luminescence"}, "SW1573 HiBiT-KRASG12C": {"molecular_target": "SW1573 HiBiT-KRASG12C (Homo sapiens, UniProt P01116, G12C)", "experiment": "HiBiT degradation assay (G12C), SW1573 HiBiT-KRASG12C cells", "conditions": "read-out: SW1573 HiBiT-KRASG12C DC50, 24 hours treatment, HiBiT luminescence", "procedure": "Reagents. SW1573 (CRL-2170), AsPC-1 (CRL-1682), and SW620 (CCL-227) cells were purchased from ATCC. SW1573 cells are homozygous for the G12C mutation in KRAS, AsPC-1 cells are homozygous for the G12D mutation, and SW620 cells are homozygous for the G12V mutation. SW1573 cells were cultured in DMEM+F12+Glutamax (+Sodium Bicarbonate, +sodium pyruvate, ThermoFisher scientific, #10565) supplemented with 10% FBS (ThermoFisher scientific, #2060357) and 1% Antibiotic-Antimycotic (ThermoFisher scientific, #15240096). […]\nHiBiT-tagged cell line generation. […] A luminescent band of the correct size for HiBiT-KRASG12C was detected in several clones. […]\nHiBiT degradation assays (G12C and G12D). […] Plates were then allowed to equilibrate to room temperature and fluorescence was measured using a Perkin-Elmer EnVision. After completion of the fluorescence read, the liquid from each well was removed and the cells were washed with PBS. […] Following incubation at room temperature for 45 minutes, the luminescence was read using the ultra-sensitive luminescence aperture on the Envision instrument.\nData analysis. Fluorescence values from the alamar blue treatment were normalized to the DMSO-only control for each compound titration. […]"}},
  "data": [
    {"compound": "CCc1cccc2cc(O)cc(-c3ncc4c(N5CC6CCC(C6)C5)nc(OCCN5CCC(COc6cc([C@H](C(=O)N7C[C@H](O)C[C@H]7C(=O)N[C@@H](C)c7ccc(-c8scnc8C)cc7)C(C)C)on6)CC5)nc4c3F)c12", "values": [
      {"measurement": "DC50", "setting": "AsPC-1 HiBiT-KRASG12D", "value": "> 3000", "unit": "nM"},
      {"measurement": "DC50", "setting": "SW1573 HiBiT-KRASG12C", "value": "> 3000", "unit": "nM"}
    ]}
  ]
}
